The values below come from PubChem BioAssay AID602182 (The Scripps Research Institute Molecular Screening Center, 2012).

Only a part is listed here, and it is no random draw. Active and inactive are the calls of the source. How the calls were made is not given here. Bounds are passed on as bounds.

A short description of the experiment: quenching of GFP signal – biochemical, fluorescence, artefact control for Rin1-Abl interaction inhibitor project, dose response (AID 602182).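 Further: ABL1-eGFP fusion protein alone without its RIN1 binding partner.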 As to conditions: GFP fluorescence interference/quenching counterscreen.

Take `CCC(c1nnnn1C1CCCCC1)N1CCC(n2c(=O)[nH]c3ccccc32)CC1` (stereo unspecified): the IC50 is inactive: > 67.6 µM.
